Values quoted from earlier work in patent US8017627B2.

Tested on: pain
Conditions: plain tablets for p.n. use

In the case of `CN1CC[C@]23c4c5ccc(O)c4O[C@H]2[C@@H](O)C=C[C@H]3[C@H]1C5`, the duration of effect is given as 4 to 6 h.
